According to patent US20090118167A1, “Selective Vpac2 Receptor Peptide Agonists” (Eli Lilly and Company Patent Division, priority 2004, published 2009):

Target: T1, rat VPAC2 receptor (rat, UniProt P35000 23-437)
T1 sequence (looked up): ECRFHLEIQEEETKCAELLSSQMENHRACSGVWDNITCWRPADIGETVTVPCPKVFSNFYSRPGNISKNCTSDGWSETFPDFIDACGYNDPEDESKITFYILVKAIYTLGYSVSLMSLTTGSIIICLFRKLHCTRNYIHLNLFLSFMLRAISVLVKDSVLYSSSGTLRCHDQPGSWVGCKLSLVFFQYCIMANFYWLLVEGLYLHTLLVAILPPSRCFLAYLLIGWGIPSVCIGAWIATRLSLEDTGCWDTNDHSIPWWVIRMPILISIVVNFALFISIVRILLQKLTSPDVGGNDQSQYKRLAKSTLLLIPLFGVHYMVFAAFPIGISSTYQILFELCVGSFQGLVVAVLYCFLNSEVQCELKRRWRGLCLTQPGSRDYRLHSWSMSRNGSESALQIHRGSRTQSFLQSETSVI
Assay: cell-based or functional assay

EC50 for cAMP generation, DiscoveRx, CHO-PO cells: 0.79 nM
Binder: HSDAVFTDNYTRLRKQMAVKKYLNSILN (not fully specified) [VIP (vasoactive intestinal peptide)]
